Measured values taken from US11596643B2, “Pectin-adriamycin conjugate as well as preparation method and use thereof” (Sichuan Yingrui Pharmaceutical Technology Company, priority 2019, dated 2023).

Tested on: H22 liver cancer tumor tissue
Conditions: H22 liver cancer tumor-bearing mice, tumors taken after killing, small animal fluorescence imaging

modified pectin-PEG8-VAPABC-adriamycin [pectin-adriamycin conjugate]
adriamycin fluorescence in tumor tissue: strong adriamycin fluorescence
